AlphaSeq binding of Ab-14 light chain variants to a spike HR2 peptide

The target is the same throughout: PDVDLGDISGINAS, from the HR2 region of SARS-CoV-2 spike.

The variants keep the heavy chain, the linker and the frameworks of Ab-14 (scFv order VH, a 15-residue (Gly4Ser)3 linker, VL).
VH: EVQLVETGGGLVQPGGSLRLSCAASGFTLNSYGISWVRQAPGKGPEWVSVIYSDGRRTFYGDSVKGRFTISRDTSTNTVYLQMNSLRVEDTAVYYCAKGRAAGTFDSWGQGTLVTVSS
VL: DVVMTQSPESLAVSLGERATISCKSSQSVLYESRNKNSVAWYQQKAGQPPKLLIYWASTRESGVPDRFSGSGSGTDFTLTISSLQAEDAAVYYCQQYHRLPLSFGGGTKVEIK

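The parent was found by panning a naive human phage display library on the peptide. These sequences belong to a second round, designed from the earlier measurements on random variants of the parent. Their group label is 14L_En_Gibbs (En: ensemble of fine-tuned language models; Gibbs: Gibbs sampling). AlphaSeq pools MATa yeast showing the antibodies with MATalpha yeast showing the peptide. Mating (16 h, 30 °C) was followed by selection of diploids and sequencing of their barcodes. A regression on co-assayed BCL2-family reference pairs converts the normalised counts of each replicate to an apparent Kd. Each pool was mated in six replicate cultures.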

The parent's light chain CDRs are KSSQSVLYESRNKNSVA, WASTRES, QQYHRLPLS; each variant's own CDRs replace them letter for letter.
Values are log10 of the apparent Kd in nM; lower means stronger binding.
Averages over replicates are reported, and they cover detected replicates only.
"nd" marks a missing value. The strain was present, yet no cells mated with the target were sequenced in that replicate, which points to weak or no binding.
In the paper, a design with two or fewer of six values counts as a poor binder.
Empty control strains, which show no peptide, gave a signal in 4% of pairings with all light chain designs; the median was 2.64 and 95% of these signals were weaker than 1.59. No background was subtracted. The control count says in how many pairings with the empty strains this scFv gave a signal, with their mean in brackets.
The range of this assay differs from that of the first round, and the authors advise against merging the two.
Of ten entries with the parent sequence, four were seen in most replicates (averages 0.34 to 2.37), three in one and three in none, so single entries are noisy.

CDR-L1,CDR-L2,CDR-L3,"log10 Kd, replicates","mean, log10 nM",empty controls
NLQYLEENSLIGASAIA,DVSIAVM,QQYSRLPLA,1.07 / 1.28 / 1.28 / 0.88 / 1.31 / 0.92,1.12,1/18 (3.06)
KINLAVWNSGHNMNNIA,GESELSR,QQYVRLPLQ,0.43 / 0.39 / 0.41 / 0.08 / 0.43 / 0.51,0.38,2/18 (3.33)
HVHMEMAIWKEISNNIA,DAQNRIA,QQYFRLPLG,0.42 / 0.35 / 0.07 / 0.47 / 0.17 / 0.27,0.29,0/18
KLTAKQNPYDQNYSNIA,EETNSLQ,QQYKHLPLS,2.75 / 4.44 / 1.92 / 1.95 / 3.76 / 2.79,2.93,1/18 (2.43)
SVRHPFQGENGRKASVA,NATIRDH,QQYFRLPLF,0.11 / 0.02 / 0.10 / 0.03 / 0.29 / 0.52,0.18,4/18 (2.73)
KLSTETYGLTGHTSSIA,HDEIRWA,QQYHKLPLI,nd / nd / 2.39 / nd / 2.17 / 1.83,2.13,0/18
NMGGTKEMQSNEIGNIA,DMNERFA,QQYFQLPLS,0.70 / 0.74 / 1.25 / 0.60 / 1.12 / 0.83,0.87,3/18 (2.12)
VANLPFNEVGPDKQNVA,NAEIRED,QQYFRLPIL,0.70 / 0.27 / 1.35 / 0.60 / -0.33 / 0.11,0.45,0/18
SLTAHVEEKKGAEASVA,EAVMLES,QQYHQLPLM,1.28 / 2.49 / 1.54 / 1.82 / 2.27 / 2.10,1.92,1/18 (1.37)
AVSIEHKENTAYWNAIA,DTSQRNN,QQYDQLPLS,2.17 / 0.87 / 1.00 / 1.66 / 1.46 / 2.35,1.59,1/18 (2.29)
HLSLPWQLGHDSTNAVA,NDSTLMT,QHYNRLPLS,0.76 / 1.98 / nd / 0.75 / 0.89 / 1.75,1.23,0/18
HITSNMFGFGGVANNVA,ETNTLMV,QQYSKLPLM,1.09 / 0.47 / 0.61 / 0.75 / 0.67 / 0.64,0.71,2/18 (2.84)
KITWYQLEMRDPGSAVA,EASVRYN,QQYWRLPLE,1.52 / nd / 0.66 / 1.32 / 0.49 / 0.96,0.99,0/18
KLRLHNLDFYEQENSIA,GVSNRAY,QQYYRLPLN,1.43 / 1.34 / 1.65 / 1.48 / 2.11 / 1.69,1.62,0/18
KFMISLEYQMAEQNNIA,HGEISTV,QQYSRLPIY,nd / nd / nd / nd / nd / nd,nd,0/18
RIYIQSDYYMENRSAIA,EMSLKAH,QQYFKLPLA,nd / nd / nd / nd / nd / nd,nd,0/18
QLQWYNTYATYSASNIA,DGAQRLN,QQYMRLPLM,1.40 / 1.92 / 1.06 / nd / 1.56 / 2.11,1.61,1/18 (1.64)
KINGVLINNGEDMNAIA,QENISNL,QQYFHLPLS,1.02 / 1.82 / 1.04 / 1.49 / 1.82 / 2.02,1.54,2/18 (2.95)
KMMLSLGEFKQSEDNVA,DMRVSVA,QQYDHLPLT,nd / nd / 2.02 / nd / nd / nd,2.02,0/18
VFQQQWDGHTLTNSSVA,NVDERME,QQYYRLPLL,0.68 / 0.39 / 0.24 / 0.62 / 0.51 / 0.37,0.47,0/18
RISQIIQENVRQYNSVA,NGMTRNA,QHYSRLPLE,2.35 / 1.52 / 1.71 / 1.87 / 2.12 / 1.92,1.91,1/18 (3.60)
KIQMWDNQVENQLGNVA,DASEYWE,QQYFQLPIS,1.15 / 1.57 / 1.41 / 1.48 / 0.92 / 4.08,1.77,1/18 (1.87)
MLDMHLSYGDNLQNRIA,EANHLET,QQYAHLPLG,0.75 / 0.86 / 0.94 / 0.55 / 0.80 / 0.99,0.81,2/18 (2.87)
VLMGQGADSIKHANSIA,NVDLVDM,QQYAHLPLS,nd / nd / nd / nd / nd / nd,nd,1/18 (2.51)
SIDSAVAYGLQNKKNIA,EEERADR,QQYAHLPLM,1.55 / 1.00 / 2.14 / 1.96 / 2.28 / 1.40,1.72,1/18 (2.14)
KMNDDFQVNERNNGSVA,DAIISEA,QQYARLPLI,0.41 / 0.19 / 0.28 / 0.20 / 0.34 / 0.55,0.33,0/18
HINEVDHGVENKYNNIA,DISELAI,QQYFQLPIS,1.63 / 1.67 / 1.57 / 1.46 / 2.12 / 1.58,1.67,0/18
HVPNYTENFMSAKQNIA,DQSARTS,QQYDRLPLA,1.03 / 0.53 / 0.72 / 0.61 / 0.80 / 0.84,0.75,1/18 (3.35)
SVTNETDGNGLKWNSVA,DAAELMT,QQYFRLPLT,0.77 / 0.64 / 0.44 / 0.44 / 0.82 / 0.73,0.64,1/18 (2.65)
RVTNELGKEMERKQSVA,ETDQRCM,QQYARLPLI,0.69 / 0.47 / 0.43 / 0.50 / 0.18 / 0.58,0.47,1/18 (4.44)
NLNTYYYTGTSNWDNIA,HGSMVEA,QQYFRLPIQ,0.47 / 0.75 / 0.46 / 0.32 / 0.78 / 0.64,0.57,2/18 (2.47)
QMTGQLFEQGNRYEPIA,HESMKEK,QQYFQLPLT,1.06 / 1.85 / 1.34 / 2.40 / 0.93 / nd,1.52,1/18 (3.16)
QLRDAIWADGMNKQSIA,ANEVSKD,QQYNRLPLS,2.13 / 1.84 / 1.93 / 1.47 / 1.89 / 1.41,1.78,1/18 (2.97)
HISIKLPGNWYMMDSVA,HSELRAE,QQYARLPLG,1.04 / 0.93 / nd / nd / 1.40 / 1.78,1.29,0/18
HMSEYEHGDNVGVGNMA,NAHETVA,QQYHHLPLS,0.15 / -0.19 / 0.14 / -0.29 / 0.05 / -0.02,-0.03,1/18 (2.33)
SLSPFMDTDNNKYDSVA,NTANIDI,QQYDRLPLS,nd / 2.17 / nd / nd / 1.75 / 2.14,2.02,3/18 (2.70)
NLRMKELGMSYNANNVA,DSENRIK,QQYYRLPLM,1.38 / 1.90 / 1.44 / 1.25 / 1.38 / 1.15,1.42,1/18 (2.42)
QVFFDLFEQGKRSQPIA,GGSMRET,QQYARLPLI,0.25 / 0.13 / 0.15 / 0.26 / 0.31 / 0.24,0.22,0/18

A selection of 4 entries from above:

{"CDR-L1": "KLTAKQNPYDQNYSNIA", "CDR-L2": "EETNSLQ", "CDR-L3": "QQYKHLPLS", "log10 Kd, replicates": "2.75 / 4.44 / 1.92 / 1.95 / 3.76 / 2.79", "mean, log10 nM": "2.93", "empty controls": "1/18 (2.43)"}
{"CDR-L1": "NLQYLEENSLIGASAIA", "CDR-L2": "DVSIAVM", "CDR-L3": "QQYSRLPLA", "log10 Kd, replicates": "1.07 / 1.28 / 1.28 / 0.88 / 1.31 / 0.92", "mean, log10 nM": "1.12", "empty controls": "1/18 (3.06)"}
{"CDR-L1": "QMTGQLFEQGNRYEPIA", "CDR-L2": "HESMKEK", "CDR-L3": "QQYFQLPLT", "log10 Kd, replicates": "1.06 / 1.85 / 1.34 / 2.40 / 0.93 / nd", "mean, log10 nM": "1.52", "empty controls": "1/18 (3.16)"}
{"CDR-L1": "VFQQQWDGHTLTNSSVA", "CDR-L2": "NVDERME", "CDR-L3": "QQYYRLPLL", "log10 Kd, replicates": "0.68 / 0.39 / 0.24 / 0.62 / 0.51 / 0.37", "mean, log10 nM": "0.47", "empty controls": "0/18"}

The measurements come from Li et al. 2023 (doi:10.1038/s41467-023-39022-2) through the FLAb antibody collection.